# Binding of CDR-mutated scFvs to a peptide of the spike HR2 region

The measurements come from Engelhart et al. 2022 (doi:10.1038/s41597-022-01779-4) through the FLAb antibody collection.

Target: peptide PDVDLGDISGINAS, taken from heptad repeat 2 (HR2) of SARS-CoV-2 spike.

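The starting antibody came from a phage panning campaign against this peptide. Variants in AAYL52 differ from the parent at up to three CDR positions; double and triple changes were sampled at random. Affinity was read by AlphaSeq, a pooled yeast mating assay with surface-displayed partners. After mating in shaken culture at 30 °C for 16 h, diploids were selected and their barcode pairs sequenced. A regression on co-assayed BCL2-family reference pairs converts the normalised counts of each replicate to an apparent Kd. There are three technical replicates.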

Each scFv is VH, a 15-residue (Gly4Ser)3 linker, VL, as in the parent Ab-95, and differs from it in the CDRs of the light chain only.
VH: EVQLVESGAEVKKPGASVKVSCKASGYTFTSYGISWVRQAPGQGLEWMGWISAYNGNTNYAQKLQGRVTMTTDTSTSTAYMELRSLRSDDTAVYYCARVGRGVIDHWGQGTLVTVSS
VL: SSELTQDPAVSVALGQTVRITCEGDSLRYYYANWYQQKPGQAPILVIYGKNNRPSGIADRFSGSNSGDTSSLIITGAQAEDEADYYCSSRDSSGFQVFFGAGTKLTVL

Substitutions are numbered in sequence along the VL above, starting at 1 (not Kabat). Affinities are written as log10 Kd with Kd in nM; a lower number is a better binder. "ND" means that the variant was in the library but no mating with the target was seen in that replicate; the authors take this as a sign of poor binding, and no number exists.

{"changes": "A32T", "log10 Kd (nM) by replicate": "1.90 1.82 1.53", "control signals": "5/9 (3.74)"}
{"changes": "Y29F+N51G+D91W", "log10 Kd (nM) by replicate": "3.71 3.53 3.62", "control signals": "1/9 (3.06)"}
{"changes": "E23K+R28Y+S93C", "log10 Kd (nM) by replicate": "4.44 4.16 4.13", "control signals": "1/9 (3.58)"}
{"changes": "Y30A+P54M+Q96G", "log10 Kd (nM) by replicate": "1.77 1.60 1.28", "control signals": "2/9 (4.48)"}
{"changes": "Y29K+S89D", "log10 Kd (nM) by replicate": "3.57 3.50 2.56", "control signals": "1/9 (3.01)"}
{"changes": "R53N+S89Q+V97C", "log10 Kd (nM) by replicate": "3.96 4.17 ND", "control signals": "3/9 (3.63)"}
{"changes": "G49Y+S55A+F95Y", "log10 Kd (nM) by replicate": "ND ND ND", "control signals": "3/9 (4.25)"}
{"changes": "G24Y+F95K", "log10 Kd (nM) by replicate": "3.08 4.60 ND", "control signals": "4/9 (3.94)"}
{"changes": "S26L+N52P+F95W", "log10 Kd (nM) by replicate": "3.85 ND ND", "control signals": "4/9 (3.88)"}
{"changes": "Y29A+N52P+S93W", "log10 Kd (nM) by replicate": "3.63 3.23 4.89", "control signals": "4/9 (3.99)"}
{"changes": "L27Y+Y31E+G94T", "log10 Kd (nM) by replicate": "3.76 3.12 ND", "control signals": "2/9 (4.18)"}
{"changes": "R28A+D91P", "log10 Kd (nM) by replicate": "3.63 3.00 ND", "control signals": "6/9 (3.85)"}
{"changes": "D25I+S26A+G49H", "log10 Kd (nM) by replicate": "4.32 3.09 ND", "control signals": "4/9 (4.17)"}
{"changes": "L27T+N51E+V97C", "log10 Kd (nM) by replicate": "ND ND 3.13", "control signals": "0/9"}
{"changes": "L27F+A32N+D91C", "log10 Kd (nM) by replicate": "3.16 3.58 ND", "control signals": "3/9 (4.25)"}
{"changes": "K50W+S93I+F98H", "log10 Kd (nM) by replicate": "3.61 ND ND", "control signals": "3/9 (4.23)"}
{"changes": "S26A+F98A", "log10 Kd (nM) by replicate": "2.70 ND 3.30", "control signals": "0/9"}
{"changes": "Y29P+A32Q+S93D", "log10 Kd (nM) by replicate": "3.40 3.41 2.81", "control signals": "6/9 (3.90)"}
{"changes": "A32I+S89C+S93E", "log10 Kd (nM) by replicate": "ND ND ND", "control signals": "3/9 (3.84)"}
{"changes": "G94D", "log10 Kd (nM) by replicate": "2.20 1.90 1.97", "control signals": "4/9 (3.99)"}
{"changes": "R53T+D91G+Q96M", "log10 Kd (nM) by replicate": "5.50 ND ND", "control signals": "2/9 (3.77)"}
{"changes": "G24F+P54V+S55D", "log10 Kd (nM) by replicate": "2.89 2.50 2.34", "control signals": "3/9 (3.88)"}

The first 3 entries again:

changes	log10 Kd (nM) by replicate	control signals
A32T	1.90 1.82 1.53	5/9 (3.74)
Y29F+N51G+D91W	3.71 3.53 3.62	1/9 (3.06)
E23K+R28Y+S93C	4.44 4.16 4.13	1/9 (3.58)

Background: pairings of library AAYL52 with three empty control strains gave a value in 28% of cases (median 3.91, 5th percentile 2.90). Values in that range, when seen in few replicates, are hard to tell from nonspecific mating. Also given: how often the same scFv was detected with the empty control strains, with their mean in brackets. Parent in this assay: reference entry 2.31, copy in this library 2.25.